This note sets out measurements from paper PMC9864848, “A Study of the Interaction between Xanthine Oxidase and Its Inhibitors from Chrysanthemum morifolium Using Computational Simulation and Multispectroscopic Methods” (Metabolites, 2023).

Sequences of proteins named here, by UniProt entry; tags and fusion partners are left off.
UniProt P80457, whole entry: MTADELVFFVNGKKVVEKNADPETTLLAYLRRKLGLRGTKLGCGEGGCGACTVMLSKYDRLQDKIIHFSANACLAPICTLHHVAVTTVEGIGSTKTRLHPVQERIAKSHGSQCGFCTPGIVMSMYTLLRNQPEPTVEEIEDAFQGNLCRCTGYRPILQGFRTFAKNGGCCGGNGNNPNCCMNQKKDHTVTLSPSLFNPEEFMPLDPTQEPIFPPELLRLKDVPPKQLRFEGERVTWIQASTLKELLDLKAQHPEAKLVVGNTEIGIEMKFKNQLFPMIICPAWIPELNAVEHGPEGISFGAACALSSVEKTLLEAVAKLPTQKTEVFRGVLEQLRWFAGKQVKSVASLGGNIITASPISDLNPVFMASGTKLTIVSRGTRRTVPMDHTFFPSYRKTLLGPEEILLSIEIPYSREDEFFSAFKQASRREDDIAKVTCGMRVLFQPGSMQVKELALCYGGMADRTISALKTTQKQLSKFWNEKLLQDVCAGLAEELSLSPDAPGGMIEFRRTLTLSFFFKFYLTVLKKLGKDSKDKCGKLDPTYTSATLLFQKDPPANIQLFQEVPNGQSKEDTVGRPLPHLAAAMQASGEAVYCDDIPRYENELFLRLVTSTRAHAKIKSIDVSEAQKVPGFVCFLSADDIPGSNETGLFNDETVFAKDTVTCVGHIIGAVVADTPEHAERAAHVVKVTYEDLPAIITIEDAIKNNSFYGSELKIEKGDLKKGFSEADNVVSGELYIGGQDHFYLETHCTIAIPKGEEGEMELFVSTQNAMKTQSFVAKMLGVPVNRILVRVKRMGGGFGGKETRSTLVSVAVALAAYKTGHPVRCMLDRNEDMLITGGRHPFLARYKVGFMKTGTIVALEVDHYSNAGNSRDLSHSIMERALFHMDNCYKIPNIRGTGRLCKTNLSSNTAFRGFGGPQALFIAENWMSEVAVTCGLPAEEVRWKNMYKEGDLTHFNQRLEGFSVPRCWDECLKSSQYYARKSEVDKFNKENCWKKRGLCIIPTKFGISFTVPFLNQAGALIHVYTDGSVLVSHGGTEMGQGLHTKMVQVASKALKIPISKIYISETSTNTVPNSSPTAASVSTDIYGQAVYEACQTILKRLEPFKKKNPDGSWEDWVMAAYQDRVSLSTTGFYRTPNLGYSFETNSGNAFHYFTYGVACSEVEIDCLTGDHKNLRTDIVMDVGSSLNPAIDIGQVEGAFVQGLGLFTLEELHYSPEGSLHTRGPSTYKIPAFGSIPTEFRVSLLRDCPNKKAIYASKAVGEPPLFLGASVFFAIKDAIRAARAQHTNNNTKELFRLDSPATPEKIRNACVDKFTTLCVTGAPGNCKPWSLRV

For this test, the target named is T1, XO (Bos taurus, UniProt P80457).
T1 construct: purchased Roche Diagnostics (Mannheim, Germany)
Kind of test: Fluorescence quenching assay of XO. It counts as binding, Bovine. To be noted: Modified Stern-Volmer association constant Ka, pH 7.5. The method, then: The assay was carried out by referring to a previous method with slight modifications. […] Titrations were performed manually and mixed carefully. […] The excitation wavelength was set at 280 nm, and the excitation and emission slits were 5 nm. The fluorescence background was corrected by subtracting the relevant blanks corresponding to the potassium phosphate buffer (pH 7.5).
To distinguish the mechanism of quenching various inhibitors on XO, the fluorescence quenching output was analyzed by applying the Stern-Volmer equation [34]: F0/F=1+KSV[Q]=1+Kqτ0[Q] where F0 and F represent the steady-state fluorescence intensities of XO in the absence and presence of the respective inhibitor. KSV is the Stern-Volmer quenching constant, determined from the slope of the linear regression of F0/F against the [Q] plot. [Q] represents the concentration of the inhibitor.
Then, Ka values for the inhibitor-XO complex at three different temperatures were calculated from the linear regression of F0/(F0 − F) against 1/[Q].

Usually Kd stands for the equilibrium constant for the complex coming apart.

For the molecule `O=c1c(O)c(-c2ccc(O)cc2)oc2cc(O)cc(O)c12` [Kaempferol, kaempferol], the dissociation constant (Kd) runs as follows: (298 K) 1740 nM; (304 K) 3440 nM; (310 K) 2090 nM.
